Structures are written as SMILES. In brackets after ≈: the same amount, converted by molar mass.

One series is described as follows: Serum level in rabbits. Conditions: for max. serumlevel: 10 mg/kg.
The next series concerns Sarc. lut. ATCC 9341. Nature of the series: Inhibition zones of blood samples of mice.
Series [1] in a line: Secretion in urine of rabbits.
In series [2] the test system is Sarcina lutea ATCC 9341. Nature of the series: ABA test, antibacterial activity in urine of mice. Conditions: urine of 21/2 hr, disc 7 mm.
Series [3] has as its system Sarcina lutea ATCC 9341. Nature of the series: MIC, agar serial dilution test.
The mark [4] stands for this setting: i.m. = 1/2 hr. (tables C-E), 30 min.
Where [5] appears, read: oral = 1/2 hr. (tables C-E), 30 min.

For the compound `COP(=O)(O)NC(=O)N[C@@H](C(=O)N[C@@H]1C(=O)N2[C@@H]1SC(C)(C)[C@@H]2C(=O)O)c1ccc(O)cc1`, the Serumlevel in “Serum level in rabbits” (10 mg/kg i.m., 1/2 hr, 30 min) amounted to 18.3 µg/mL; in “Serum level in rabbits” (10 mg/kg i.m., 1/4 hr, 15 min), 25.3 µg/mL; in the series “Serum level in rabbits” (10 mg/kg i.m., 1 hr), 10.3 µg/mL; in the series “Serum level in rabbits” (10 mg/kg i.m., 2 hr) it was 3.3 µg/mL; in “Serum level in rabbits” (10 mg/kg or., 1/2 hr, 30 min), 0.3 µg/mL; in “Serum level in rabbits” (10 mg/kg or., 1/4 hr, 15 min), 0.3 µg/mL. Moreover, the Serumlevel was 0.3 µg/mL in the series “Serum level in rabbits” (10 mg/kg or., 1 hr); below 0.2 µg/mL in the series “Serum level in rabbits” (10 mg/kg or., 2 hr); below 0.05 µg/mL in the series “Serum level in rabbits” (10 mg/kg or., 4 hr). For the same compound, the max. bloodlevel was 23 µg/mL in the series “Blood level in mice” (100 mg/kg i.p.) and 1.6 µg/mL in the series “Blood level in mice” (100 mg/kg or.). For the same compound, the Max. inhibition zone in the series with Sarc. lut. ATCC 9341 (100 mg/kg i.p.) is listed as 27 mm; in the series on Sarc. lut. ATCC 9341 (100 mg/kg or.), 14 mm. Further, the “% of the administered dose secreted after 24 hr” value in series [1] (10 mg/kg i.m. (tables B-E)) is 110%; in series [1] (10 mg/kg oral (tables B-E)), 20.8%. The “% of the secreted compound in urine” value in series [1] (10 mg/kg i.m., 6 hr) was determined as 102%; in series [1] (10 mg/kg i.m., 24 hr), 110%; in series [1] (10 mg/kg or., 6 hr), 13.4%; in series [1] (10 mg/kg or., 24 hr) it was 20.8%. Further, the “ABA, inhibition zone of urine” value with Sarcina lutea ATCC 9341 [2] (100 mg/kg i.p.) is recorded as 52 mm; in the series on Sarcina lutea ATCC 9341 [2] (100 mg/kg or.) it was 47 mm.
In the case of `CC1(C)S[C@@H]2[C@H](NC(=O)[C@H](NC(=O)NP(=O)(O)O)c3ccc(O)cc3)C(=O)N2[C@H]1C(=O)O`, the Serumlevel in the series “Serum level in rabbits” (10 mg/kg i.m., 1/2 hr, 30 min) is 68.0 µg/mL; in “Serum level in rabbits” (10 mg/kg i.m., 1/4 hr, 15 min), 81.3 µg/mL; in the series “Serum level in rabbits” (10 mg/kg i.m., 1 hr) it was 38.3 µg/mL; in “Serum level in rabbits” (10 mg/kg i.m., 2 hr), 9.6 µg/mL; in the series “Serum level in rabbits” (10 mg/kg i.m., 4 hr), 0.43 µg/mL; in the series “Serum level in rabbits” (10 mg/kg or., 1/2 hr, 30 min) it was below 0.25 µg/mL. The Serumlevel in the series “Serum level in rabbits” (10 mg/kg or., 1/4 hr, 15 min) is below 0.25 µg/mL; in the series “Serum level in rabbits” (10 mg/kg or., 1 hr), below 0.25 µg/mL; in the series “Serum level in rabbits” (10 mg/kg or., 2 hr), below 0.25 µg/mL; in the series “Serum level in rabbits” (10 mg/kg or., 4 hr), below 0.25 µg/mL. Further, the max. serumlevel is 81.3 µg/mL in “Serum level in rabbits” (setting [4]) and below 0.25 µg/mL in “Serum level in rabbits” (setting [5]). The same compound returned a max. bloodlevel in “Blood level in mice” (100 mg/kg i.p.) of 134 µg/mL. For the same compound, the values for the Max. inhibition zone in the series on Sarc. lut. ATCC 9341 (100 mg/kg i.p.) and in the series on Sarc. lut. ATCC 9341 (100 mg/kg or.) were 38 mm and 7 mm, respectively. Besides, the “% of the secreted compound in urine” value is on record as 3.3% in series [1] (10 mg/kg or., 6 hr) and 5.9% in series [1] (10 mg/kg or., 24 hr). For the same compound, in series [1] (10 mg/kg oral (tables B-E)), the “% of the administered dose secreted after 24 hr” value amounted to 6%. Also, the results for the “ABA, inhibition zone of urine” value in the series with Sarcina lutea ATCC 9341 [2] (100 mg/kg i.p.) and in the series with Sarcina lutea ATCC 9341 [2] (100 mg/kg or.) were 60 mm and 34 mm, respectively.
What is called MIC is the lowest concentration that inhibits growth of the organism. Higher therefore signals a need for much substance. `CCOP(=O)(O)NC(=O)N[C@@H](C(=O)N[C@@H]1C(=O)N2[C@@H]1SC(C)(C)[C@@H]2C(=O)O)c1ccc(O)cc1`: the Serumlevel in “Serum level in rabbits” (10 mg/kg i.m., 1/2 hr, 30 min) was found to be 19.7 µg/mL; in the series “Serum level in rabbits” (10 mg/kg i.m., 1/4 hr, 15 min), 23.4 µg/mL; in the series “Serum level in rabbits” (10 mg/kg i.m., 1 hr), 13.0 µg/mL; in the series “Serum level in rabbits” (10 mg/kg i.m., 2 hr), 4.7 µg/mL; in “Serum level in rabbits” (10 mg/kg i.m., 4 hr) it was 0.6 µg/mL; in the series “Serum level in rabbits” (10 mg/kg or., 1/2 hr, 30 min), 0.64 µg/mL. Moreover, the Serumlevel in the series “Serum level in rabbits” (10 mg/kg or., 1/4 hr, 15 min) is below 0.57 µg/mL; in the series “Serum level in rabbits” (10 mg/kg or., 1 hr), 0.64 µg/mL; in “Serum level in rabbits” (10 mg/kg or., 2 hr), below 0.54 µg/mL; in the series “Serum level in rabbits” (10 mg/kg or., 4 hr), below 0.5 µg/mL. In addition, the max. serumlevel in the series “Serum level in rabbits” (setting [4]) amounted to 23.4 µg/mL; in the series “Serum level in rabbits” (setting [5]), 0.64 µg/mL. Besides, the max. bloodlevel in “Blood level in mice” (100 mg/kg i.p.) was determined as 37 µg/mL; in “Blood level in mice” (100 mg/kg or.) it was 2 µg/mL. Besides, the Max. inhibition zone with Sarc. lut. ATCC 9341 (100 mg/kg i.p.) was found to be 23 mm; with Sarc. lut. ATCC 9341 (100 mg/kg or.), 9 mm. In addition, the results for the “% of the administered dose secreted after 24 hr” value in series [1] (10 mg/kg i.m. (tables B-E)) and in series [1] (10 mg/kg oral (tables B-E)) were 46-63% and below 1.22%, respectively. Besides, the “% of the secreted compound in urine” value in series [1] (10 mg/kg i.m., 6 hr) is reported as 45.8%; in series [1] (10 mg/kg i.m., 24 hr), below 63.0%; in series [1] (10 mg/kg or., 6 hr), below 0.62%; in series [1] (10 mg/kg or., 24 hr), below 1.22%. The “ABA, inhibition zone of urine” value in the series on Sarcina lutea ATCC 9341 [2] (100 mg/kg i.p.) was determined as 51 mm; in the series with Sarcina lutea ATCC 9341 [2] (100 mg/kg or.), 41 mm. Moreover, the MIC against Sarcina lutea ATCC 9341 [3] (agar serial dilution) and with Sarcina lutea ATCC 9341 [3] (tables B-E) was 0.5 µg/mL (≈ 0.968 µM) throughout.

The record behind these values is US4067986A, “Novel penicillanic acid” (Gist-Brocades N.V., priority 1974, dated 1978).
